A word on the IC50: it is the midpoint of a concentration-inhibition curve.

Protein sequences, listed by entry. Tags and fused reporters are not part of them.
UniProt Q99873, whole entry: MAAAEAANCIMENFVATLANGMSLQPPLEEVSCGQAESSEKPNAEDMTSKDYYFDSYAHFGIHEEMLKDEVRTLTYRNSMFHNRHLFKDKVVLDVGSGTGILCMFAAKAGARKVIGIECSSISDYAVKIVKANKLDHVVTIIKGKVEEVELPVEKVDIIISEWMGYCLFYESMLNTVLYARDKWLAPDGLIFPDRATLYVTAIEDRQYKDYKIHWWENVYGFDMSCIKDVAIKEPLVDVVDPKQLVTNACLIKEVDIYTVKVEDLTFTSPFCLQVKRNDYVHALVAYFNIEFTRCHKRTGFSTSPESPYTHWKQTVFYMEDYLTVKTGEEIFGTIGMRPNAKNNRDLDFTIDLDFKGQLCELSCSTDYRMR

In the test the target is Protein arginine N-methyltransferase 1 (Homo sapiens, UniProt Q99873). Nature of the test: Inhibition of PRMT1 (unknown origin).

Molecules are shown by their SMILES.

In the case of `C[S+](CC[C@H](N)C(=O)[O-])C[C@H]1O[C@@H](n2cnc3c(N)ncnc32)[C@H](O)[C@@H]1O` (stereo partly specified) [ADEMETIONINE], the IC50 is 468 nM.

The record behind these values is ChEMBL document CHEMBL6087464, “Design, Synthesis, and Biological Evaluation of 3,4-Dihydroisoquinolin-1(2H)-one Derivatives as Protein Arginine Methyltransferase 5 Inhibitors for the Treatment of Non-Hodgkin's Lymphoma” (J Med Chem, 2025).
